AlphaSeq binding of Ab-14 heavy chain variants to a spike HR2 peptide

Source: Engelhart et al. 2022 (doi:10.1038/s41597-022-01779-4), MIT Lincoln Laboratory and A-Alpha Bio; data file from the FLAb repository.

Antigen: PDVDLGDISGINAS, a 14-residue peptide of the SARS-CoV-2 spike HR2 region.

Parent scFv Ab-14: VH joined to VL by a (GGGGS)3 linker. Changes lie in the heavy chain CDRs alone.
VH: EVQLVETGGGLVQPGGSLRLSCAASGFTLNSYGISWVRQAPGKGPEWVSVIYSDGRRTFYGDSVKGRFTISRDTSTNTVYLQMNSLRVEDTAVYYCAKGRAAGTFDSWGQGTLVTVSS
VL: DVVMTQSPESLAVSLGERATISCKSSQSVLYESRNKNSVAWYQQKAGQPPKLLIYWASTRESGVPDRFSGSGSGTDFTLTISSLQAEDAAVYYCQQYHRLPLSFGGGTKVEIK

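The parent was found by panning a naive human phage display library on the peptide. Library AAYL49 holds single substitutions and randomly drawn double and triple substitutions in the CDRs. In AlphaSeq, yeast of one mating type display the scFv and yeast of the other type display the target. Pairs that bind mate more often; barcode pairs of the diploids are counted by sequencing. The ratio of observed to expected reads was calibrated, replicate by replicate, on BCL2-family standards whose Kd was known from biolayer interferometry. Mating was done three times.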

Changes read parent residue, position, new residue, counted from the first residue of the VH shown. Affinities are written as log10 Kd with Kd in nM; a lower number is a better binder. Replicates are averaged; those with no signal do not enter the mean. A pair that was not seen in that replicate is written "nd"; this usually means weak binding, but a binder can also be missed. Nonspecific signal, from three strains lacking the peptide, appeared in 15% of pairings of library AAYL49, centred on 4.06 (5% of these signals below 2.83); values are not corrected for it. Also given: how often the same scFv was detected with the empty control strains, with their mean in brackets.

changes	log10 Kd, replicates	mean, log10 nM	signal with controls
N30I/S31P/G55S	nd nd nd	nd	0 of 9
I34D/G55C/G103H	nd nd nd	nd	1 of 9 (3.48)
V50E/Y52V/A102K	nd 4.25 nd	4.25	1 of 9 (2.87)
F27N/G55R/A101M	nd nd nd	nd	0 of 9
L29T/R56F/G103N	nd nd nd	nd	0 of 9
G26T/G33S/V64G	5.15 nd nd	5.15	3 of 9 (4.50)
L29A/G33Y/Y52V	nd nd nd	nd	0 of 9
F59K/S63H/D106W	nd nd nd	nd	1 of 9 (3.64)
Y32N/I51E/S107V	5.78 nd nd	5.78	4 of 9 (4.02)
L29C/S35A/Y52T	nd nd nd	nd	0 of 9
G55D/S63F/R100H	nd nd nd	nd	0 of 9
T58I/Y60I/G61T	2.62 2.48 3.77	2.96	2 of 9 (4.49)
G33A/T58V/G103A	4.42 5.75 5.47	5.21	7 of 9 (4.61)
F59D/D62P/A102K	nd nd nd	nd	1 of 9 (3.74)
L29Q/T104P	4.02 3.45 nd	3.74	4 of 9 (3.96)
V50M/D62L/D106P	nd nd 3.14	3.14	5 of 9 (4.43)
G33P/I34T/F105E	nd 3.49 3.18	3.33	3 of 9 (4.47)
T58S/G61M/G99F	nd nd nd	nd	0 of 9
G26Q/F105N/D106V	nd 3.71 nd	3.71	2 of 9 (3.58)
N30M/V64D/R100K	3.72 nd nd	3.72	1 of 9 (3.15)
Y52M/T58K/R100V	nd nd nd	nd	1 of 9 (2.46)
Y32V/K65E	2.23 1.91 2.63	2.26	1 of 9 (3.38)
G26D/F59V/G61H	nd nd nd	nd	0 of 9
F27Y/F105R	nd 3.69 nd	3.69	0 of 9
V50C/R100N/A101H	3.59 3.55 2.84	3.33	6 of 9 (4.37)
L29H/F59E	2.75 2.82 2.94	2.84	0 of 9
G61T/D62W	2.14 2.18 2.14	2.15	0 of 9
S63A/V64A/G103K	nd nd nd	nd	0 of 9
F27M/L29R/I34H	nd nd nd	nd	0 of 9
S53T/D62L/D106F	nd nd nd	nd	2 of 9 (4.73)
G33R/V50K/G103F	nd nd nd	nd	4 of 9 (3.57)
Y52G/F59G/K65A	nd nd 5.45	5.45	2 of 9 (4.87)
T58C/K65M/R100D	5.76 3.55 nd	4.65	1 of 9 (4.27)
F27I/R56T/G99R	3.90 nd nd	3.90	3 of 9 (3.55)
S53K/D54V/T104P	nd 3.72 nd	3.72	1 of 9 (4.17)
T28L/Y52M/Y60N	nd nd 4.86	4.86	1 of 9 (4.28)
T28Q/G55V/R100H	nd nd nd	nd	2 of 9 (3.73)
T28C/Y60I/G103S	5.53 nd 4.10	4.81	1 of 9 (3.46)
R57M/V64R/S107C	4.31 nd nd	4.31	1 of 9 (3.74)
D54P/D62H/G103Q	nd nd nd	nd	1 of 9 (3.03)
F27T/S31F/A102I	nd nd nd	nd	1 of 9 (3.77)
Y52T/R57V/S63L	nd nd nd	nd	0 of 9
S35M/R57A/D62I	4.69 4.48 nd	4.58	0 of 9

A selection of 7 entries from above:

changes	log10 Kd, replicates	mean, log10 nM	signal with controls
L29C/S35A/Y52T	nd nd nd	nd	0 of 9
T28C/Y60I/G103S	5.53 nd 4.10	4.81	1 of 9 (3.46)
S53T/D62L/D106F	nd nd nd	nd	2 of 9 (4.73)
Y32N/I51E/S107V	5.78 nd nd	5.78	4 of 9 (4.02)
F59D/D62P/A102K	nd nd nd	nd	1 of 9 (3.74)
F27M/L29R/I34H	nd nd nd	nd	0 of 9
T28Q/G55V/R100H	nd nd nd	nd	2 of 9 (3.73)